Molecular target: Adenosine receptor A3 (Homo sapiens, UniProt P0DMS8)
Test: Binding Assay

Chains of the proteins cited; added tags and fusions are not shown.
UniProt P0DMS8, whole entry: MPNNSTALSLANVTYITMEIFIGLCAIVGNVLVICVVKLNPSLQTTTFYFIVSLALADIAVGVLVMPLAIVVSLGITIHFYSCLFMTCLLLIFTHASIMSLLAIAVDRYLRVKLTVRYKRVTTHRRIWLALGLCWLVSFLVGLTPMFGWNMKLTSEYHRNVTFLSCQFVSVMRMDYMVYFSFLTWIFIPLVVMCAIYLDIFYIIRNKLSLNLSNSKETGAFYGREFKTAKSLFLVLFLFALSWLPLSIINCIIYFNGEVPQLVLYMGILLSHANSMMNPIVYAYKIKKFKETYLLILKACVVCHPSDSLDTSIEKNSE

OC1CS[C@@H](n2cnc3c(NCc4cccc(Cl)c4)nc(Cl)nc32)C1O (stereo in doubt) [US9018371, 2]
Ki: 1.66 nM
